Source: ChEMBL document CHEMBL3758094, “Thioxocoumarins Show an Alternative Carbonic Anhydrase Inhibition Mechanism Compared to Coumarins” (J Med Chem, 2016)

Experiments:
Carbonic anhydrase 9 = Carbonic anhydrase 9 (Homo sapiens, UniProt Q16790)
Carbonic anhydrase 12 = Carbonic anhydrase 12 (Homo sapiens, UniProt O43570)

O=c1ccc2ccccc2o1 [COUMARIN]
pKi (Carbonic anhydrase 9): < 4.00
pKi (Carbonic anhydrase 12): < 4.00

pKi: −log10 of the molar value.
